The values below come from ChEMBL document CHEMBL3817780, “Structure-Based Design of 1,4-Dibenzoylpiperazines as β-Catenin/B-Cell Lymphoma 9 Protein-Protein Interaction Inhibitors” (ACS Med Chem Lett, 2016).

Assay [1] is filed under the species Homo sapiens. Put plainly: Selectivity ratio of Ki for beta-catenin E155A mutant (138 to 686 residues)(unknown origin)/N-terminally fluorescein-labeled human BCL9 (350 to 375 residues) interaction to Ki for wild type beta-catenin (unknown origin)/N-terminally biotinylated human BCL9 (350 to 375 residues) interaction.
For assay [2], the species on record is Homo sapiens. Put plainly: Selectivity ratio of Ki for beta-catenin D145A mutant (138 to 686 residues)(unknown origin)/N-terminally fluorescein-labeled human BCL9 (350 to 375 residues) interaction to Ki for wild type beta-catenin (unknown origin)/N-terminally biotinylated human BCL9 (350 to 375 residues) interaction.

`Cl.Cl.O=C(c1cc(F)cc(N2CCNCC2)c1)N1CCN(C(=O)c2ccc(O[C@H]3CCNC3)c(C3CCCCC3)c2)CC1`: the Ratio Ki in the assay filed under Homo sapiens [1] and in the assay listed under Homo sapiens [2] was 6 throughout.
